Only a part is listed here, and it is no random draw. Results filed as inconclusive are left out. The source made the active and inactive calls. The call rests on the fitted dose curve; in most records, active means well fitted falling curve with a large enough effect; inconclusive means small, poorly fitted or top-dose-only effect; inactive means no such curve, though single readings can be large or run the other way.

Sequences of proteins named here, by UniProt entry; tags and fusion partners are left off.
UniProt P80244, whole entry: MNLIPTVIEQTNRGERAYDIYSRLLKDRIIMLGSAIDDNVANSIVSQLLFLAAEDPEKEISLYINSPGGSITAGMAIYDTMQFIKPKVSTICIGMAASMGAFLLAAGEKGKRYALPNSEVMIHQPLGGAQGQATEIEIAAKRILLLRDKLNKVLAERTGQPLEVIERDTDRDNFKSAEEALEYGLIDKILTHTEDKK

For this test, the target named is ATP-dependent Clp protease proteolytic subunit (Bacillus subtilis (strain 168)) (UniProt P80244). Nature of the test: qHTS Assay for Activators of ClpP. Further: the source files actives as falling curves though it sought activators and does not explain the sign; nearly all actives have a fitted effect of over 65% in size. The settings on record: purified B. subtilis ClpP, FRET peptide cleavage, 20 min; at 57.5 µM (top of the series).
On to `c1cc(-c2nn[nH]n2)ccc1-c1nn[nH]n1`, for which the activity change, negative = active was inactive: 0.337%.

For `COc1cc([N+](=O)[O-])c([N+](=O)[O-])cc1OC`, the activity change, negative = active was inactive: 0.289%.

On to `CC(C)c1nc(Nc2ccccc2)n(P(=O)(N(C)C)N(C)C)n1`, for which the activity change, negative = active is inactive: 1.23%.

On to `CN(C)C(=O)c1c([N+](=O)[O-])cc([N+](=O)[O-])cc1[N+](=O)[O-]`, for which the activity change, negative = active was inactive: 0.737%.

On to `CN(C)C(=O)OCCc1n(C)cc[n+]1C`, for which the activity change, negative = active is inactive: 0.487%.

As for `CP(=O)(Nc1ccc(Cl)cc1)Oc1ccc(F)cc1` (stereo not drawn), the activity change, negative = active was inactive: 1.39%.

Turning to `COc1ccccc1OP(C)(=O)Nc1ccccc1Br` (stereo not drawn), the activity change, negative = active was inactive: 1.98%.

For the molecule `CC(C)(C)c1ccc(OP(C)(=O)O)cc1`, the activity change, negative = active was inactive: -0.663%.

With `C[N+]1=C2C=CC=CC=C2SC12C([N+](=O)[O-])=CC([N+](=O)[O-])=C[C-]2[N+](=O)[O-]` (stereo not drawn), the activity change, negative = active is inactive: 0.0795%.

`CN1CCCC(OC(=O)C(c2ccccc2)c2ccccc2)C1` (stereo not drawn): the activity change, negative = active was inactive: 1.14%.

Turning to `CN(C)CCOC(=O)C(O)(c1ccccc1)C1CCCC1` (stereo not drawn), the activity change, negative = active was inactive: -0.565%.

Consider `COc1ccc(OP(C)(=O)Nc2ccccn2)cc1` (stereo not drawn), for which the activity change, negative = active is inactive: 0.179%.

Turning to `Cc1ccc(OP(=O)(Nc2nccs2)Oc2ccc(C)cc2)cc1`, the activity change, negative = active was inactive: 0.404%.

For the molecule `CN(C(=O)Cc1ccc(Cl)c(Cl)c1)[C@H]1CCCC[C@H]1N1CCCC1`, the activity change, negative = active was inactive: -1.21%.

Take `NC(=O)c1cc([N+](=O)[O-])cc([N+](=O)[O-])c1N`: the activity change, negative = active was inactive: 1.7%.

With `O=[N+]([O-])c1cc2c(cc1[N+](=O)[O-])OCO2`, the activity change, negative = active was inactive: 1.88%.

For `CCc1ccc(OP(C)(=O)O)cc1`, the activity change, negative = active was inactive: -12.7%.

Turning to `O=[N+]([O-])C1C(O)C(O)C([N+](=O)[O-])C(O)C1O` (stereo not drawn), the activity change, negative = active is inactive: 0.126%.

As to `CP(=O)(Nc1ccccn1)Oc1ccccc1` (stereo not drawn), the activity change, negative = active was inactive: -9.77%.

For `COc1ccccc1OP(C)(=O)Nc1ccc(C)cc1C` (stereo not drawn), the activity change, negative = active was inactive: -3.76%.

As for `Oc1ccccc1CNc1ccccn1`, the activity change, negative = active was inactive: -17%.

`Cc1c(NP(C)(=O)Oc2ccc(C(C)C)cc2)c(=O)n(-c2ccccc2)n1C` (stereo not drawn): the activity change, negative = active is inactive: 0.987%.

As for `Nc1cc(N)c2nonc2c1[N+](=O)[O-]`, the activity change, negative = active was inactive: -0.229%.

`CC(C)CC(=O)NC(Sc1ccc(Cl)cc1)C(Cl)(Cl)Cl` (stereo not drawn): the activity change, negative = active was inactive: -0.617%.

Regarding `COc1ccc(OP(C)(=O)Nc2ccccc2Br)cc1` (stereo not drawn), the activity change, negative = active was inactive: 1.09%.

On to `Cc1cc(SC(NC(=O)c2ccc(F)cc2)C(Cl)(Cl)Cl)ncn1` (stereo not drawn), for which the activity change, negative = active was inactive: -2.59%.

Take `CCOP(=O)(Nc1ccccc1)OCC`: the activity change, negative = active is inactive: 0.806%.

`COc1ccccc1OP(C)(=O)Nc1ccc(C)c(C)c1` (stereo not drawn): the activity change, negative = active was inactive: -0.18%.

For the molecule `CN(C(=O)Cc1ccc(Cl)c(Cl)c1)[C@H]1CCCC[C@@H]1N1CCCC1`, the activity change, negative = active is inactive: -1.07%.

For `CN(C)P(=O)(N(C)C)n1c(Nc2ccccc2)nnc1-c1ccccc1`, the activity change, negative = active was inactive: 1.54%.

For the molecule `Nc1cccc2ccc([As](=O)(O)O)cc12`, the activity change, negative = active is inactive: 4.7%.

For `CCCCCCCCCCCCCCCC1C[N+](C)(C)CCOP(C)(=O)O1` (stereo not drawn), the activity change, negative = active is inactive: -5.73%.

Turning to `CP(=O)(OCCOc1ccccc1)OCCOc1ccccc1`, the activity change, negative = active was inactive: -5.11%.

Turning to `CCN(N=Nc1nonc1N)c1nonc1N`, the activity change, negative = active is inactive: 1.42%.

With `Nc1c(O)cc([N+](=O)[O-])cc1[N+](=O)[O-]`, the activity change, negative = active is inactive: 0.305%.

Take `[N-]=[N+]=NC1CCCCC1NC(=O)c1cc([N+](=O)[O-])cc([N+](=O)[O-])c1` (stereo not drawn): the activity change, negative = active was inactive: -12.8%.

As for `Cc1ccc(OP(=O)(Nc2ccc([N+](=O)[O-])cn2)Oc2ccc(C)cc2)cc1`, the activity change, negative = active was inactive: 1.15%.

On to `CC(C)(C)c1ccc(OP(C)(=O)Nc2ccc(SC(F)(F)F)cc2)cc1` (stereo not drawn), for which the activity change, negative = active was inactive: 2.54%.

Regarding `Cc1cccc(C)c1OP(C)(N)=O` (stereo not drawn), the activity change, negative = active is inactive: -2.02%.

`ClCCN(CCCl)c1ccc(CC2C=CC=C2)cc1`: the activity change, negative = active is inactive: -0.261%.

Consider `O=[N+]([O-])c1cc([N+](=O)[O-])c(Nc2cccnc2)c([N+](=O)[O-])c1`, for which the activity change, negative = active was inactive: 1.64%.

For `C[As](=O)(O)c1cccc(C(=O)O)c1`, the activity change, negative = active is inactive: 1%.

For the molecule `O=[N+]([O-])c1ccc(-c2cc([N+](=O)[O-])c(O)c([N+](=O)[O-])c2)cc1`, the activity change, negative = active was inactive: -1.59%.

Take `COc1cc(C(=O)NCC2(N3CCOCC3)CCCCC2)ccc1OCC(C)C`: the activity change, negative = active was inactive: -3.1%.

As to `CCN(CC)C(=S)SC(NC=O)C(Cl)(Cl)Cl` (stereo not drawn), the activity change, negative = active is inactive: -14.9%.

For the molecule `O=C(OC1CN2CCC1CC2)c1cccc2[nH]cnc12` (stereo not drawn), the activity change, negative = active was inactive: -0.561%.

As to `COc1ccc(OP(C)(=O)Nc2cccc(F)c2)cc1` (stereo not drawn), the activity change, negative = active is inactive: 0.828%.

Regarding `O=[N+]([O-])c1cc([N+](=O)[O-])c(-c2ccn[nH]2)s1`, the activity change, negative = active was inactive: 0.924%.

On to `CCOC(=O)c1ccc(NP(C)(=O)Oc2ccccc2)cc1` (stereo not drawn), for which the activity change, negative = active was inactive: -1.31%.

For the molecule `ClCCSc1nnc(-c2cccnc2)o1`, the activity change, negative = active was inactive: -2.56%.

Turning to `O=Cc1ccc(NCCCl)cc1`, the activity change, negative = active is inactive: -6.82%.

For the molecule `COc1ccccc1OP(C)(=O)Nc1ccc(C)cc1` (stereo not drawn), the activity change, negative = active is inactive: -1.51%.

For `COC(=O)C1(C)COP(=O)(N2CCCCCC2)OC1` (stereo not drawn), the activity change, negative = active was inactive: 1.17%.

For `Cc1ccc(NP(C)(=O)Oc2ccccc2)c(C)c1` (stereo not drawn), the activity change, negative = active is inactive: 1.53%.

`O=P1(N(CCCl)CCCl)OCCCN1CCCl` (stereo not drawn): the activity change, negative = active is inactive: -1.33%.

On to `Cc1c2c(nc3ccccc13)SC(C(Cl)Cl)C2` (stereo not drawn), for which the activity change, negative = active was inactive: -4.04%.

In the case of `O=C(OC1CN2CCC1CC2)C12CC3CC(CC(C3)C1)C2` (stereo not drawn), the activity change, negative = active was inactive: -1.71%.

Consider `CCN(CC)CCCOC(=O)C(O)(c1ccccc1)c1ccccc1`, for which the activity change, negative = active was inactive: -0.43%.

For the molecule `O=[N+]([O-])c1cc(Oc2ccc([N+](=O)[O-])cc2C(F)(F)F)cc([N+](=O)[O-])c1`, the activity change, negative = active is inactive: 0.467%.

Turning to `COc1ccc(N/C(=N/P(=O)(N2CCOCC2)N2CCOCC2)N2CCOCC2)cc1`, the activity change, negative = active was inactive: 3.05%.

For `COc1ccccc1-c1ccccn1.O=[N+]([O-])c1cc([N+](=O)[O-])c(O)c([N+](=O)[O-])c1`, the activity change, negative = active is inactive: -6%.

On to `O=C(COc1ccccc1)OC1CN2CCC1CC2` (stereo not drawn), for which the activity change, negative = active is inactive: 0.625%.

`CP(=O)(NC(=O)Nc1ccccc1)Oc1ccccc1` (stereo not drawn): the activity change, negative = active is inactive: -1.68%.

For `CCc1ccc(OP(C)(=O)N2CCN(c3ccc([N+](=O)[O-])cc3)CC2)cc1` (stereo not drawn), the activity change, negative = active was inactive: 1.83%.

On to `O=C(Nc1ccncc1[N+](=O)[O-])c1ccc([N+](=O)[O-])cc1[N+](=O)[O-]`, for which the activity change, negative = active is inactive: 0.173%.

For the molecule `Cc1cc(C)cc(OP(C)(=O)Nc2ccc(SC(F)(F)F)cc2)c1` (stereo not drawn), the activity change, negative = active is inactive: -2.34%.

Consider `COP1(=S)c2c(C)nn(CCC#N)c2N=C(c2ccc(F)cc2)N1C` (stereo not drawn), for which the activity change, negative = active is inactive: -1.13%.

With `Cc1cccc(C)c1OP(C)(=O)Nc1ccc(SC(F)(F)F)cc1` (stereo not drawn), the activity change, negative = active was inactive: -46.4%.

As to `CP(=O)(Nc1ccc(SC(F)(F)F)cc1)Oc1ccc(Cl)cc1` (stereo not drawn), the activity change, negative = active was inactive: -3.74%.

For the molecule `COC(=O)C1(C)COP(=O)(N2CCCC2)OC1` (stereo not drawn), the activity change, negative = active was inactive: -14.6%.

For the molecule `CCC(C)N(CC(C)C)C(=S)SC(NC(C)=O)C(Cl)(Cl)Cl` (stereo not drawn), the activity change, negative = active was inactive: 0.534%.

Turning to `CP(=O)(Nc1ccccn1)Oc1ccc(Cl)cc1` (stereo not drawn), the activity change, negative = active was inactive: -14.8%.

With `O=C(OC1CN2CCC1CC2)c1cccc([N+](=O)[O-])c1` (stereo not drawn), the activity change, negative = active is inactive: -0.164%.

For `CCOP(C)(=S)SCC(=O)NC(C)C(=O)O` (stereo not drawn), the activity change, negative = active is inactive: -0.464%.

Regarding `CSc1ccc(Nc2c([N+](=O)[O-])cc([N+](=O)[O-])cc2[N+](=O)[O-])cc1`, the activity change, negative = active was inactive: -2.23%.

For the molecule `CCOC(=O)c1ccc(NP(C)(=O)Oc2ccc(OC)cc2)cc1` (stereo not drawn), the activity change, negative = active was inactive: 1.55%.

In the case of `COP(=O)(OC)N1CC1c1ccccc1` (stereo not drawn), the activity change, negative = active was inactive: 1.91%.

As to `CCCCOc1ccc(C(=O)NCC2(N3CCCCC3)CCCCC2)cc1OC`, the activity change, negative = active is inactive: -0.191%.

Turning to `Cc1cc(SC(NC(=O)c2ccccc2)C(Cl)(Cl)Cl)nc(C(C)C)n1` (stereo not drawn), the activity change, negative = active is inactive: -2.15%.

For the molecule `O=C(O)C(=O)c1ccc(N(CCCl)CCCl)cc1.c1ccc(Nc2ccccc2)cc1`, the activity change, negative = active was inactive: -2.38%.

For `CCOC(=O)Nc1ccc([As](=O)(O)O)c(O)c1`, the activity change, negative = active is inactive: -0.459%.

`CC1CCNP(=O)(N(CCCl)CCCl)O1` (stereo not drawn): the activity change, negative = active was inactive: -0.715%.

As to `CP(=O)(Nc1ccccc1Br)Oc1ccccc1` (stereo not drawn), the activity change, negative = active is inactive: -0.643%.

On to `O=[N+]([O-])c1ccc(Nc2ccc(Oc3ccc([N+](=O)[O-])cc3[N+](=O)[O-])cc2)c([N+](=O)[O-])c1`, for which the activity change, negative = active was inactive: -5.09%.

Regarding `CP(=S)(Nn1cnnc1)Oc1ccccc1` (stereo not drawn), the activity change, negative = active was inactive: -0.762%.

As for `CN(C)C1(CNC(=O)c2ccc(S(C)(=O)=O)cc2)CCCCC1`, the activity change, negative = active was inactive: -3.03%.

With `CC1=C2N=C(C=C3N=C(C(C)=C4[N-][C@@](C)([C@@H]5N=C1[C@](C)(CCC(=O)NC[C@@H](C)OP(=O)([O-])O[C@H]1[C@@H](O)[C@@H](n6cnc7cc(C)c(C)cc76)O[C@@H]1CO)[C@H]5CC(N)=O)[C@@](C)(CC(N)=O)[C@@H]4CCC(N)=O)[C@@](C)(CC(N)=O)[C@@H]3CCC(N)=O)C(C)(C)[C@@H]2CCC(N)=O.[C-]#N.[Co+3]`, the activity change, negative = active was inactive: -2.66%.

In the case of `O=[N+]([O-])c1cc([N+](=O)[O-])c(Nc2nnnn2CCO)c([N+](=O)[O-])c1`, the activity change, negative = active was inactive: -1.67%.

As for `O=C(/C=C/c1ccccc1)OC1CN2CCC1CC2` (stereo not drawn), the activity change, negative = active is inactive: -0.814%.

Take `Cc1nn(-c2ccccc2)c2c1P(=O)(N1CCOCC1)N(C)C(c1ccccc1)=N2` (stereo not drawn): the activity change, negative = active was inactive: 0.453%.

Regarding `Cc1ccc(C(=O)OC2CN3CCC2CC3)cc1` (stereo not drawn), the activity change, negative = active was inactive: 0.501%.

For `COc1cc([N+](=O)[O-])ccc1[N+](=O)[O-]`, the activity change, negative = active is inactive: -0.608%.

As for `COc1cc(C2NCCC3(OCCO3)C2(C)C)cc(OC)c1OC.O=[N+]([O-])c1cc([N+](=O)[O-])c(O)c([N+](=O)[O-])c1` (stereo not drawn), the activity change, negative = active was inactive: 1.54%.

Values taken from PubChem BioAssay AID651965 (National Center for Advancing Translational Sciences (NCATS), 2013).
